Experimental findings from paper PMC12268434 (ACS Omega, 2025) are described below.

The experiment deals with U-87 MG glioma cells. Description: CCK-8 cell viability assay, U-87 MG. As to conditions: Homo sapiens, read-out: cell viability at 0.3 μM. Type of experiment: cell-based. (In general: Tetrazolium dyes change colour on reduction, which living cells bring about.)

Structures are written as SMILES.

For the compound `COc1cccc2c1C(=O)c1c(O)c3c(c(O)c1C2=O)C[C@@](O)(C(=O)CO)C[C@@H]3O[C@H]1C[C@H](N)[C@H](O)[C@H](C)O1` [DOX, doxorubicin], the viability (in general, the share of living cells, or the viability signal relative to a control) at 0.3 µM was 49.6 ± 1.9%.
